Compound activity: PubChem BioAssay, National Center for Advancing Translational Sciences (NCATS)
EPAC2 ag: qHTS for Agonist of cAMP-regulated guanine nucleotide exchange factor 4 (EPAC2): primary screen | EPAC2 activation, biochemical qHTS; response scale: 100% = 6.5 mM cAMP response | 360,000 tested, 0.079% active | Potency, µM (doses to about 154 µM), for the others: top-dose activation, actives largely listed as activators | AID 720711, 2013 | Rap guanine nucleotide exchange factor 4 (Homo sapiens), Q8WZA2; also: nearly all actives have a fitted effect of over 50% in size
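Nucleotide exchange monitored as fluorescence drop when BODIPY-GDP leaves Rap1B. Reaction: 100 nM EPAC2, 250 nM RAP1B-BODIPY-GDP, 50 uM GDP, room temperature, kinetic read over 30 min. Activity expressed relative to 6.5 mM cAMP.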
EPAC2 antagonist: qHTS for Antagonist of cAMP-regulated guanine nucleotide exchange factor 2 (EPAC2): primary screen. EPAC2 GEF exchange of Rap1B-BODIPY-GDP, fluorescence. Potency, µM (highest dose often 114 µM), without a hit: at the top dose activity, negative = inhibition, actives largely listed as inhibitors. AID 720708, 2013. Rap guanine nucleotide exchange factor 4 (Homo sapiens), Q8WZA2. 360,000 tested, 0.18% active; also: % is scaled to controls: 0 for no effect and ±100 for the full control effect; nearly all actives have a fitted effect of over 45% in size
EPAC1 agonist: qHTS for Agonist of cAMP-regulated guanine nucleotide exchange factor 3 (EPAC1): primary screen. Rap guanine nucleotide exchange factor 3 (Homo sapiens), O95398. EPAC1 agonist qHTS, biochemical assay; response scale: 100% = response to 6.5 mM cAMP. Potency, µM (titrated, usually from 154 µM), for inactives: at the top dose activation, usual class: activators. 360,000 tested, 0.073% active. AID 720707, 2013; also: nearly all actives have a fitted effect of over 60% in size
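Compounds were pinned as a concentration titration into mixtures of EPAC1 (100 nM), BODIPY-GDP-loaded Rap1B (250 nM) and GDP (50 uM). After 5 min at room temperature, fluorescence was followed for 30 min; activity was scaled to 6.5 mM cAMP.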
Rango-impB inh: qHTS Assay for Inhibitors of Rango (Ran-regulated importin-beta cargo) - Importin beta complex formation; Importin subunit beta-1 (Homo sapiens), Q14974; Rango CFP/YFP FRET sensor + importin beta, 45 min; Potency, µM (series often up to 92.2 µM), for inactives: top-dose inhibition of complex formation; 340,000 tested, 0.031% active; AID 540263, 2011; calls by dose curve;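 also: 0% = DMSO wells and 100% = buffer wells lacking importin beta; nearly all actives have a fitted effect of over 15% in size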
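Inhibition scored from the CFP 486 nm/YFP 530 nm FRET ratio 45 min after adding 0.125 microM importin beta to 50 nM Rango biosensor preincubated 5 min with compound (room temperature, PBS with DTT, Tween-20, BSA). No-importin wells as positive control.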
EPAC1 antagonist: qHTS for Antagonist of cAMP-regulated guanine nucleotide exchange factor 3 (EPAC1): primary screen. Rap guanine nucleotide exchange factor 3 (Homo sapiens), O95398. 360,000 tested, 0.14% active. Potency, µM (series often up to 115 µM), for inactives: at the highest dose activity change, negative = inhibition, most hits filed as inhibitors. EPAC1 GEF assay, Rap1b-BODIPY-GDP exchange fluorescence;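 also: plate controls were vehicle for no effect and positive control for full effect; nearly all actives have a fitted effect of over 50% in size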
Rango dissoc inh: qHTS Assay for Inhibitors of RanGTP induced Rango (Ran-regulated importin-beta cargo) - Importin beta complex dissociation; 340,000 tested, 0.071% active; AID 540253, 2011; Potency, µM (top dose mostly 46.1 µM), inactives show at the highest dose activity change, negative = inhibition; Biochemical FRET Rango-importin beta, RanGTP-induced dissociation; Snurportin-1 (Homo sapiens) + GTP-binding nuclear protein Ran (Homo sapiens) + Importin …; calls by dose curve; also: % of control where 0% means no effect; nearly all actives have a fitted effect of over 45% in size
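Quantitative HTS using a FRET biosensor: 0.1 uM Rango, 0.25 uM importin beta, 0.6 uM Ran, 2 mM GTP, 0.2 uM RCC1 final, PBS with DTT, Tween-20 and BSA. Post-read taken 45 min after Ran addition.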
An asterisk follows results filed as active; ? = inconclusive; / = not tested or not shown; + = active, no number. Compounds with a hit are over-represented: about 0.48% of the library has one in this group of screens. Unless noted, calls follow the shape of the dose curve; as a rule, active = well fitted curve in the direction sought with a large enough effect; inconclusive = small, poorly fitted or top-dose-only effect, or another doubt; inactive = no such curve, though single readings can be large; an effect the other way counts as inactive or inconclusive. Potency is read from the fitted curve at half-maximal effect.

The chains behind the UniProt entries cited, without tags or fusion partners.
Importin subunit beta-1 (Homo sapiens), Q14974, UniProt Q14974, whole entry, looked up: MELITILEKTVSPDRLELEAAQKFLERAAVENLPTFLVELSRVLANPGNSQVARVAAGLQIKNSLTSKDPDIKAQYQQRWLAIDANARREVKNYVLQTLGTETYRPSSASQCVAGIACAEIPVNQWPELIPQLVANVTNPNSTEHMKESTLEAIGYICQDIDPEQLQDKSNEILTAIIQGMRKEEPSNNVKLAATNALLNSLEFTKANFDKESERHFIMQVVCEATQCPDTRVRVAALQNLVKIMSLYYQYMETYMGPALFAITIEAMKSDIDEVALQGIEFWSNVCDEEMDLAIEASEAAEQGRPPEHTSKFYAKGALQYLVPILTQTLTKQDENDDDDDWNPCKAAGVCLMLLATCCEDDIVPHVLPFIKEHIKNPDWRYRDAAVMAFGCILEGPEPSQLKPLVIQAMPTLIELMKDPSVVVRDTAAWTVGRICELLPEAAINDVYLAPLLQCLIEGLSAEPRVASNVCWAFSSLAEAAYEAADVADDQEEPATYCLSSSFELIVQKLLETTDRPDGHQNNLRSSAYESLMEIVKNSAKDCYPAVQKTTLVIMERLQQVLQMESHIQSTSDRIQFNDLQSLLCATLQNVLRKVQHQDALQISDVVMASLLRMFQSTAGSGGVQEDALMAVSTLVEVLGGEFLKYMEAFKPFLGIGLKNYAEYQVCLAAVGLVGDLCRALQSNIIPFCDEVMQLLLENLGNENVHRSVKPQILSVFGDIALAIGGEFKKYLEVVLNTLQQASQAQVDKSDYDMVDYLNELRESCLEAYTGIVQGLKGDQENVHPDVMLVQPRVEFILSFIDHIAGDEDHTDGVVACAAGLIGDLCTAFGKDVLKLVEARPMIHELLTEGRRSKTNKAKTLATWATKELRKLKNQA

SMILES	EPAC2 ag	EPAC2 antagonist	EPAC1 agonist	Rango-impB inh	EPAC1 antagonist	Rango dissoc inh
O=C1NC(=Nc2ccccc2Cl)S/C1=C\c1cccc([N+](=O)[O-])c1	5%	-9%	10%	0%	-23%	20%
O=C(CN1C(=O)S/C(=C\c2ccc(Cl)cc2)C1=O)NNC(=O)c1ccccc1O	6%	-15%	-8%	0%	-22%	-19%
Cc1cccc(-c2n[nH]nc2C2=CC(=O)CC(C)(C)C2)c1	3%	-5%	0%	/	-1%	/
CN1CCN(c2ncnc3c2ncn3[C@H]2CN(Cc3ccc(Cl)cc3)C[C@@H](CO)O2)CC1	9%	-8%	2%	/	-2%	/
CCOc1ccc(C(=O)NNC(=O)CN2C(=O)NC3(CCCC3)C2=O)cc1	-3%	7%	5%	0%	3%	6%
CCOc1ccc(Oc2ccccc2NC(=O)CN2C(=O)NC3(CCCC3)C2=O)cc1	-5%	-4%	28µM*	0%	-20%	-17%
CCCC(=O)N1CCC1(C)C(=O)NS(=O)(=O)c1cc2c(cc1C)CCCS2(=O)=O (stereo unspecified)	8%	5%	17%	/	0%	/
CCC[C@H]1CC(=O)C=C(c2ccsc2)ON1C(=O)OC(C)(C)C	9%	18µM*	-19%	-2%	-10%	-15%
CC1CC1c1ccc(/C=C(\C#N)C(=O)Nc2ccccc2Cl)o1 (stereo unspecified)	4%	5%	100µM*	?	-14%	?
N#C/C(=C\c1ccc[nH]1)C(=O)Nc1ccccc1Cl	7%	14%	-15%	16µM*	-19%	1%
N#C/C(=C/c1ccc(N2CCCCC2)o1)C(=O)Nc1ccc2ccccc2c1	6%	19%	24%	?	48%	?
CC1CC1c1ccc(/C=C(\C#N)C(=O)Nc2ccc(Cl)cc2)o1 (stereo unspecified)	22%	-1%	100µM*	?	10%	?
N#C/C(=C/c1ccc(N2CCCCC2)o1)C(=O)Nc1ccc(Cl)cc1	100µM*	5%	100µM*	?	1%	?
COc1ccc(NC(=O)/C(C#N)=C/c2ccc(Br)o2)cc1	-6%	10%	2%	-4%	38%	-6%
N#C/C(=C\c1ccc[nH]1)C(=O)Nc1ccccc1F	7%	0%	8%	-1%	2%	6%
COC(=O)[C@@]12C[C@@H](CC(=O)NCCc3ccccc3OC)C(=O)N(Cc3ccccc3)C1=CCC(C)(C)C2	-4%	-21%	-10%	/	-19%	/
COC(=O)C[C@H]1C=C[C@@H](NS(=O)(=O)c2ccccc2)[C@@H](CO)O1	9%	14%	15%	/	-2%	/
CCN(Cc1ccccc1)S(=O)(=O)c1c[nH]c(C(=O)OC)c1	13%	-18%	3%	2%	-6%	-10%
Cc1cccc(C)c1Nc1nnc(SC/C(O)=C(\C#N)c2nc3ccccc3[nH]2)s1	15%	-4%	-3%	?	?	15µM*
N#C/C(=C(/O)CCl)c1nc2ccccc2[nH]1	10%	-2%	-1%	?	-3%	13µM*

The list goes on, overlapping the part above by 5 compounds.
SMILES	EPAC2 ag	EPAC2 antagonist	EPAC1 agonist	Rango-impB inh	EPAC1 antagonist	Rango dissoc inh
COC(=O)[C@@]12C[C@@H](CC(=O)NCCc3ccccc3OC)C(=O)N(Cc3ccccc3)C1=CCC(C)(C)C2	-4%	-21%	-10%	/	-19%	/
COC(=O)C[C@H]1C=C[C@@H](NS(=O)(=O)c2ccccc2)[C@@H](CO)O1	9%	14%	15%	/	-2%	/
CCN(Cc1ccccc1)S(=O)(=O)c1c[nH]c(C(=O)OC)c1	13%	-18%	3%	2%	-6%	-10%
Cc1cccc(C)c1Nc1nnc(SC/C(O)=C(\C#N)c2nc3ccccc3[nH]2)s1	15%	-4%	-3%	?	?	15µM*
N#C/C(=C(/O)CCl)c1nc2ccccc2[nH]1	10%	-2%	-1%	?	-3%	13µM*
Cc1cc(Oc2ccc(=O)n(C)n2)nc(SCc2ccccc2)n1	14%	5%	5%	2%	0%	-2%
O=S(=O)(O)c1ccc(O)c2cc(Nc3ccccc3)ccc12	28%	?	19%	?	10µM*	-1%
COc1ccc(CC(=O)Nc2ccc(C(N)=O)cc2)cc1	14%	-1%	6%	-2%	-21%	2%
COC(=O)/N=C(/Cc1ccc(OC)cc1)c1ccc(OC)cc1	14%	56µM*	9%	-2%	-8%	2%
CCOC1=C2[C@H](c3ccccc3)N(S(=O)(=O)c3ccc(C)cc3)C(C(C)(C)C)[C@H]2C(C#N)(C#N)C(C#N)(C#N)C1 (stereo partly specified)	-2%	15%	-16%	/	?	/
COc1ccc(C(C(=O)Nc2ccc(F)cc2)N2CCN(c3cccc(C(F)(F)F)n3)CC2)cc1 (stereo unspecified)	-2%	-8%	-3%	/	-24%	/
NS(=O)(=O)c1cccc(NC(=O)CCCNC(=O)c2ccc(Cl)cc2)c1	0%	-30%	-11%	16µM*	?	8%
S=c1[nH]nc(-c2cc(-c3ccccc3)n[nH]2)n1/N=C/c1ccc(Cl)c(Cl)c1	5%	?	63µM*	3%	56µM*	-6%
S=c1[nH]nc(-c2cc(-c3ccccc3)n[nH]2)n1/N=C/c1cccc(Cl)c1	3%	-21%	89µM*	1%	50µM*	-6%
CC(C)CN1CCC1(C)C(=O)Nc1cccc(C#N)c1 (stereo unspecified)	3%	-6%	-7%	/	4%	/
COc1ccccc1NC(=O)COC(=O)c1ccc([N+](=O)[O-])s1	5%	?	8%	-2%	11µM*	-8%
Cc1c(N=C2Nc3cccc4cccc2c34)c(=O)n(-c2ccccc2)n1C	-193%	216%	-180%	?	116%	2.6µM*
c1ccc(CN2CCC3CC2c2cc(N4CCOCC4)ccc23)cc1 (stereo unspecified)	1%	-6%	4%	-2%	5%	1%
O=C(CSc1nc2c(sc3ccccc32)c(=O)n1CCCN1CCOCC1)NCC1CCCO1 (stereo unspecified)	6%	2%	4%	4%	-9%	-13%
NC(=O)CSc1nc2c(sc3ccccc32)c(=O)n1CCCC(=O)NCC1CCCO1 (stereo unspecified)	-4%	92%	+	?	123%	7%
COCCSc1ccccc1C(=O)Nc1cc(C)ccn1	0%	5%	-3%	-2%	13%	8%
CCCC(C(=O)NCc1ccco1)N(Cc1ccco1)C(=O)CNS(=O)(=O)c1ccccc1 (stereo unspecified)	4%	3%	-7%	-2%	-14%	-3%
